Literature values as cited in article PMC7747014 (Journal of medicinal chemistry, 2015).

Chains of the proteins cited; added tags and fusions are not shown.
UniProt Q9NUW8, whole entry: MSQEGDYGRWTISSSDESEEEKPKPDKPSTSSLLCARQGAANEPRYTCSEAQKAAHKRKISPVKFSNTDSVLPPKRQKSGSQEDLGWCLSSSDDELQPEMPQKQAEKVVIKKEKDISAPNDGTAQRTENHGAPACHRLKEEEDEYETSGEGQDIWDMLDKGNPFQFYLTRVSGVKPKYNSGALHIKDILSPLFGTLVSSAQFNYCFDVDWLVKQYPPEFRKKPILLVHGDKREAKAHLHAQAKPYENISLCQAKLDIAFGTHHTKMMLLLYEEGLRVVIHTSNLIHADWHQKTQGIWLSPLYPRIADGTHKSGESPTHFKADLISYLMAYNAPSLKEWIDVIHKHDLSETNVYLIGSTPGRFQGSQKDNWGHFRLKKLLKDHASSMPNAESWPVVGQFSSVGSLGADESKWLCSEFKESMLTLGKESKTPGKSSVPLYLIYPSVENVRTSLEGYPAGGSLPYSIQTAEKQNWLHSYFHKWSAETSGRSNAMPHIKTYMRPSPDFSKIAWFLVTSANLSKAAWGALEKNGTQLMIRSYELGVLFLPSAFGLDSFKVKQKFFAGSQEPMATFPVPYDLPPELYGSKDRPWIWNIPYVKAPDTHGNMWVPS

Target: recombinant TDP1 (Homo sapiens, UniProt Q9NUW8)
Conditions: read-out: TDP1 inhibition; semiquantitative IC50 scale; cited from earlier work

In the case of `COc1cccc2c1-c1c(c3ccc([N+](=O)[O-])cc3c(=O)n1CCCN)C2=O` [Compound 4], the IC50 is listed as 1 to 12 µM.
For `COc1ccc2c(c1)C(=O)c1c-2n(CCCN)c(=O)c2cc([N+](=O)[O-])ccc12` [Compound 5], the IC50 is listed as 1 to 12 µM.
